## scFv variants of Ab-95 (light chain) against a SARS-CoV-2 spike peptide

Values reported by Engelhart et al. 2022, doi:10.1038/s41597-022-01779-4 (FLAb copy).

The target is the same throughout: PDVDLGDISGINAS, from the HR2 region of SARS-CoV-2 spike.

Ab-95 is the parent antibody, in scFv form: VH, then a (GGGGS)3 linker, then VL. The heavy chain is unchanged in all variants.
VH: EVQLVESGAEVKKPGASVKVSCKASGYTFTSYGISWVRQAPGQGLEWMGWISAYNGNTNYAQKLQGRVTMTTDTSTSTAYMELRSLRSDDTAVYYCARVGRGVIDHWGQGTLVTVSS
VL: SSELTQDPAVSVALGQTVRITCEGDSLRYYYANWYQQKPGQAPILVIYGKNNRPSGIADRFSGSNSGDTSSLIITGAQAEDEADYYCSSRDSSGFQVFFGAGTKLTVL

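The starting antibody came from a phage panning campaign against this peptide. Variants in AAYL52 differ from the parent at up to three CDR positions; double and triple changes were sampled at random. The assay is AlphaSeq: two haploid yeast populations carry antibody and antigen on their surface. Mating (16 h, 30 °C) was followed by selection of diploids and sequencing of their barcodes. Each replicate has its own calibration line, from reference interactions of the BCL2 family. There are three technical replicates.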

Substitutions are numbered in sequence along the VL above, starting at 1 (not Kabat).
Affinities are written as log10 Kd with Kd in nM; a lower number is a better binder.
"n.d." means that the variant was in the library but no mating with the target was seen in that replicate; the authors take this as a sign of poor binding, and no number exists.
Background: pairings of library AAYL52 with three empty control strains gave a value in 28% of cases (median 3.91, 5th percentile 2.90). Values in that range, when seen in few replicates, are hard to tell from nonspecific mating. The control count says in how many pairings with the empty strains this scFv gave a signal, with their mean in brackets.

{"changes": "L27S G94V V97P", "log10 Kd (nM) by replicate": "3.61 / 4.71 / n.d.", "signal with controls": "7/9 (3.93)"}
{"changes": "Y31F D91R F95N", "log10 Kd (nM) by replicate": "2.48 / 2.33 / 2.27", "signal with controls": "4/9 (3.88)"}
{"changes": "D25R R53V S89A", "log10 Kd (nM) by replicate": "2.70 / 2.60 / 2.35", "signal with controls": "4/9 (3.69)"}
{"changes": "R53K P54N D91Y", "log10 Kd (nM) by replicate": "5.34 / 3.75 / 2.19", "signal with controls": "4/9 (3.76)"}
{"changes": "S26E Y29W P54D", "log10 Kd (nM) by replicate": "3.43 / n.d. / 4.59", "signal with controls": "4/9 (4.50)"}
{"changes": "E23G S88R F95S", "log10 Kd (nM) by replicate": "3.33 / 4.04 / 2.76", "signal with controls": "3/9 (4.58)"}
{"changes": "R90G S92G V97N", "log10 Kd (nM) by replicate": "4.15 / 3.07 / 3.86", "signal with controls": "5/9 (4.64)"}
{"changes": "D25K N33S S89P", "log10 Kd (nM) by replicate": "5.06 / 5.22 / 4.35", "signal with controls": "5/9 (3.98)"}
{"changes": "Y29K S92I F95N", "log10 Kd (nM) by replicate": "2.88 / 4.00 / 3.35", "signal with controls": "1/9 (4.59)"}
{"changes": "S26Y R53G Q96P", "log10 Kd (nM) by replicate": "n.d. / n.d. / n.d.", "signal with controls": "2/9 (4.32)"}
{"changes": "R53Y S88Q D91R", "log10 Kd (nM) by replicate": "n.d. / n.d. / n.d.", "signal with controls": "3/9 (4.19)"}
{"changes": "G24R L27S K50T", "log10 Kd (nM) by replicate": "3.13 / 2.90 / 2.30", "signal with controls": "0/9"}
{"changes": "R28S N51Y F95V", "log10 Kd (nM) by replicate": "n.d. / n.d. / n.d.", "signal with controls": "2/9 (3.53)"}
{"changes": "S88V V97G F98W", "log10 Kd (nM) by replicate": "2.60 / 2.45 / 3.29", "signal with controls": "2/9 (3.42)"}
{"changes": "E23P R28I R90C", "log10 Kd (nM) by replicate": "n.d. / 4.88 / n.d.", "signal with controls": "4/9 (3.29)"}
{"changes": "R53G S92L F95L", "log10 Kd (nM) by replicate": "n.d. / 4.50 / 4.54", "signal with controls": "2/9 (3.60)"}
{"changes": "Y29N P54V G94K", "log10 Kd (nM) by replicate": "4.29 / n.d. / n.d.", "signal with controls": "3/9 (3.84)"}
{"changes": "E23G S55G S92I", "log10 Kd (nM) by replicate": "2.43 / 1.91 / 1.96", "signal with controls": "2/9 (4.67)"}
{"changes": "S26K Y31H F95W", "log10 Kd (nM) by replicate": "3.83 / n.d. / n.d.", "signal with controls": "1/9 (4.70)"}

The first 2 entries again:

{"changes": "L27S G94V V97P", "log10 Kd (nM) by replicate": "3.61 / 4.71 / n.d.", "signal with controls": "7/9 (3.93)"}
{"changes": "Y31F D91R F95N", "log10 Kd (nM) by replicate": "2.48 / 2.33 / 2.27", "signal with controls": "4/9 (3.88)"}

In this assay the parent's reference entry averaged 2.31; its copy inside this library read 2.25.